By UniProt entry, the sequences of proteins in these tests, tags left out.
UniProt Q96P20, whole entry: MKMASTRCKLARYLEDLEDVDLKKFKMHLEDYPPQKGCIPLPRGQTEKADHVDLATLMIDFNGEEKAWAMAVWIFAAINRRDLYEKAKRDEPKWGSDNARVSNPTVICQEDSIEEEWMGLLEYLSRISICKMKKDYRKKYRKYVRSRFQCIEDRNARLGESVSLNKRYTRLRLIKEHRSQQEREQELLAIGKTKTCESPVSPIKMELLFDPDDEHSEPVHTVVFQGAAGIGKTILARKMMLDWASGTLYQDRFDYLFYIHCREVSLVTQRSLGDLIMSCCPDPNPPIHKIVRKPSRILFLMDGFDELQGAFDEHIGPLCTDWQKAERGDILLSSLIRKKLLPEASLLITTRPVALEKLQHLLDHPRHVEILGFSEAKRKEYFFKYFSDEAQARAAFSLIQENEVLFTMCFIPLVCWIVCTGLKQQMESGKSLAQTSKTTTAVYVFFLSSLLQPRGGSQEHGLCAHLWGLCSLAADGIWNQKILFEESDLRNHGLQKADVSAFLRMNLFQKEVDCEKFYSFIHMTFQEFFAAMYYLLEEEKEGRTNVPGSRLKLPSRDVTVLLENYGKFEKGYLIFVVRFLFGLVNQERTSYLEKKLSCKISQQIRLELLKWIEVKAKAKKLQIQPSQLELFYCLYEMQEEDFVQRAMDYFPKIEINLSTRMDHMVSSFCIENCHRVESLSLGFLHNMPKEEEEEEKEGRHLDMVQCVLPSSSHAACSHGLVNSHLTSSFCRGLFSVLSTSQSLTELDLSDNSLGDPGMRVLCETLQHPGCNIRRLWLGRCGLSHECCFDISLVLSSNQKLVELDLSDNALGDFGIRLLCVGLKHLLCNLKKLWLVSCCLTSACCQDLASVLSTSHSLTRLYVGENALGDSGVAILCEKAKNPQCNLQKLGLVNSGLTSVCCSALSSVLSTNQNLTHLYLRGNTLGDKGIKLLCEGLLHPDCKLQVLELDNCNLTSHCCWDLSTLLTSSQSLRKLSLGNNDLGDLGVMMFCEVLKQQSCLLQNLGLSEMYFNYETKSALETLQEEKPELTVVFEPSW

According to patent US20240400561A1, “NOVEL SUBSTITUTED SULFONYLUREA COMPOUNDS AS INHIBITORS OF INTERLEUKIN-1 ACTIVITY” (Viva Star Biosciences (Suzhou) Co., Ltd., priority 2021, published 2024):

Molecular target: NLRP3 (Homo sapiens, UniProt Q96P20)
Experiment: THP-1 cell assay (LPS priming, nigericin), IL1β release by HTRF; called pyroptosis assay, THP IC50
Settings: read-out: THP IC50; NLRP3 inhibitory activity; THP-1 cells, 1.0 ug/mL LPS, compound 3 hrs, nigericin 5 uM 1 hr, IL1β in supernatant
Procedure: The following method was used for compound screening. • 1. Seed THP-1 cells (5.56*10^5 cells/mL) containing 1.0 ug/mL LPS (SIGMA, L6529) in 45 uL RPMI 1640 medium (without FBS) into 384-well plate (Thermo Scientific, 164688). • 2. Add 5 uL compound (10 doses starting from 5 uM, 1:3 dilution) or vehicle (0.05% DMSO in medium) to the appropriate wells. • 3. Centrifuge the plates at 1000 rpm for 2 mins and incubate for 3 hrs at 37° C., 5% CO2. • 4. Add 5 uL nigericin (MEC, HY-100381) (final conc. 5 uM) to sample wells and positive control wells; add 5 uL RPMI 1640 medium to negative control wells. • 5. Centrifuge plates at 1000 rpm for 2 mins and incubate for 1 hr at 37° C., 5% CO2. • 6. At the end of the incubation period, centrifuge plates at 1000 rpm for 6 mins and transfer 8 uL supernatant into 384-well assay plates (PerkinElmer, 6008280). • 7. Add 8 ul RPMI 1640 medium into each well and spin down for 10 secs. • 8. Prepare the standard solutions and pre-mixed IL1β antibody solution of Human […] kits (PerkinElmer, 62HIL1BPEH) according to the instruction. • 9. Add 16 uL standard solutions into clear wells of 384-well assay plates. • 10. […] Seal the plates, spin down for 10 secs, incubation for overnight at RT and read on an HTRF® compatible reader (BMG LABTECH, PHERAstar FS). • 12. The concentrations of IL1β for treated wells are calculated by the standard curve. • 13. […]

SMILES | IC50 [nM]
Cc1cc2c(c(NC(=O)NS(=O)(=O)c3cnn(CC4CC4)c3)c1-c1ccn3cncc3c1)CCC2 | < 30
CC(C)(O)c1csc(S(=O)(=O)NC(=O)Nc2c(-c3ccc4cncn4c3)ccc3c2CCC3)c1 | 30 to 300
